# Measurements: US8815528B2, “Methods and systems for detecting MHC class I binding peptides” (Beckman Coulter, Inc., priority 2002, dated 2014)
# Molecular target: Monomer HLA-A*0201 (Homo sapiens, UniProt P04439, D140Y/D185E/D98H/E176V/E277Q/G131W/G231S/I119V/I121R/I166T/I218V/L300P/L318F/N151K/N90K/P208A/P217A/Q86G/Q94H/R138H/R169H/T345S)
# Test: Measurement of the peptide-MHC off rate (solid phase assay, anti-HLA-ABC-FITC read-out)
# Format: binding
# Details: at 37° C. and 32.5° C.
smiles,measurement,value
CC(C)C[C@H](NC(=O)[C@@H](N)Cc1ccccc1)C(=O)N1CCC[C@H]1C(=O)N[C@@H](CO)C(=O)N[C@@H](CC(=O)O)C(=O)N[C@@H](Cc1ccccc1)C(=O)N[C@@H](Cc1ccccc1)C(=O)N1CCC[C@H]1C(=O)N[C@@H](CO)C(=O)N[C@H](C(=O)O)C(C)C [HBVcore],stability of the complex (in words),very good stability
